From US5614198A, “Bowman-Birk Inhibitor compositions for treatment of inflammatory disease” (The Trustees of the University of Pennsylvania, priority 1995, dated 1997)

System: proteolytic activity in UC lesions
Assay: gelatin zymogram protease assay of UC lesion homogenates from DNBS/ethanol rat colon
Conditions: FIG. 2, DFP 1 mM, BBI 1.25 μM, EDTA 10 mM

O=C(O)CN(CCN(CC(=O)O)CC(=O)O)CC(=O)O
activity of UC lesion column with no protease inhibitor relative to inhibitor column (scanning densitometry): 1.6 times
